Earlier results in patent publication US11369615B2, “Agent for improving mitochondrial dysfunction, preventative or therapeutic agent for diseases or symptoms caused by mitochondrial dysfunction, and applications therefor” (JICHI MEDICAL UNIVERSITY, priority 2017, dated 2022).

Settings: stated as known; cited from earlier work

## Cc1cc2c(s1)Nc1ccccc1N=C2N1CCN(C)CC1 [(I-3)]
  ability to pass through the blood-brain barrier: known to be able to pass through the blood-brain barrier
